# Measured values: US12091650B2, “Development of spinal cord on a microfluidic chip” (EMULATE, INC., priority 2016, dated 2024)
# Test system: blood brain barrier (BBB) on-chip, iPS-derived brain endothelial cells
# Assay: Barrier function test with human serum proteins (ELISA)
# Assay type: in vitro ADME
# Settings: FIG. 47, ELISA
# Protocol: In some embodiments, methods for seeding cells on-chip are provided, as follows for one example: Day—1: Activate and Coat Chips, Day 0: Seed HBMECs, Astrocytes and Pericytes.; Day 1: Initiate flow of media @60 μl/hr. Bottom channel only or Top and bottom channels.; Day 2: Initiate permeability assay: Dextran+ Serum proteins+ Compounds of interest.; Day 3: End permeability assay. Collect media and freeze.; Day 4: Test permeability modulators/experimental stimuli Day 5: Repeat permeability assay.; Day 6: End permeability assay—Collect media and freeze. Fix or lyse chips.
substance,measurement,value
"Albumin: human albumin, serum protein used in barrier function test","diffusion / level in neuronal channel, from Vascular Channel to Neuronal Channel",Low diffusion
